Earlier results in patent US20140364449A1 (priority 2012, published 2014).
Some compounds may have been tested in ways that are not shown here.

Conditions: cited from earlier work

CCC(=O)N(c1ccccc1)C1CCN(CCc2ccccc2)CC1
pKa value of the N-group: 8.4
